Experimental data as given in patent US10456407B2, “Combination therapy for treating cancer” (Epizyme, Inc., priority 2015, dated 2019).

Key:
[1] = system: WSU-DLCL2 cells; test: RT2 Glucocorticoid signaling PCR array, WSU-DLCL2 (WSU) cell line (Table 4c); assay type: cell-based
[2] = system: DOHH2 cells; test: RT2 Glucocorticoid signaling PCR array, DOHH2 cell line (Table 4b); assay type: cell-based; settings: DOHH2, 4 days, vs DMSO

`C[C@]12C=CC(=O)C=C1CC[C@@H]1[C@@H]2[C@@H](O)C[C@@]2(C)[C@H]1CC[C@]2(O)C(=O)CO` [Prednisolone, prednisolone] was tested, and the “Fold Change, ADARB1” value ([1]; gene ADARB1, compared to DMSO) was 0.935, the “Fold Change, AFF1” value ([1]; gene AFF1, compared to DMSO) was 1.379 and the “Fold Change, AK2” value ([1]; gene AK2, compared to DMSO) was 0.937. For the same molecule, the “Fold Change, AMPD3” value ([1]; gene AMPD3, compared to DMSO) was 1.164, the “Fold Change, ANGPTL4” value ([1]; gene ANGPTL4, compared to DMSO) was 1.256 and the “Fold Change, ANXA4” value ([1]; gene ANXA4, compared to DMSO) was 1.017. For the same molecule, the “Fold Change, ARID68” value ([1]; gene ARID68, compared to DMSO) was 0.582, the “Fold Change, ASPH” value ([1]; gene ASPH, compared to DMSO) was 1.029 and the “Fold Change, ATF4” value ([1]; gene ATF4, compared to DMSO) was 0.940. For the same molecule, the “Fold Change, BCL6” value ([1]; gene BCL6, compared to DMSO) was 0.841, the “Fold Change, CEBPA” value ([1]; gene CEBPA, compared to DMSO) was 1.227 and the “Fold Change, CEBPB” value ([1]; gene CEBPB, compared to DMSO) was 0.569. The “Fold Change, CREB1” value ([1]; gene CREB1, compared to DMSO) was 1.097, the “Fold Change, CREB3” value ([1]; gene CREB3, compared to DMSO) was 1.369 and the “Fold Change, CREB3L4” value ([1]; gene CREB3L4, compared to DMSO) was 1.257. The “Fold Change, CYB561” value ([1]; gene CYB561, compared to DMSO) was 12.109, the “Fold Change, DDIT4” value ([1]; gene DDIT4, compared to DMSO) was 3.187 and the “Fold Change, DUSP1” value ([1]; gene DUSP1, compared to DMSO) was 0.730. The “Fold Change, EHD3” value ([1]; gene EHD3, compared to DMSO) was 3.127, the “Fold Change, FK8PS” value ([1]; gene FK8PS, compared to DMSO) was 2.373 and the “Fold Change, FOSL2” value ([1]; gene FOSL2, compared to DMSO) was 0.139. For the same molecule, the “Fold Change, GDPD1” value ([1]; gene GDPD1, compared to DMSO) was 0.889, the “Fold Change, GHRHR” value ([1]; gene GHRHR, compared to DMSO) was 0.091 and the “Fold Change, GOT1” value ([1]; gene GOT1, compared to DMSO) was 0.834. The “Fold Change, H6PD” value ([1]; gene H6PD, compared to DMSO) was 0.906, the “Fold Change, HNRPLL” value ([1]; gene HNRPLL, compared to DMSO) was 0.472 and the “Fold Change, IL1RN” value ([1]; gene IL1RN, compared to DMSO) was 0.407. For the same molecule, the “Fold Change, KLF9” value ([1]; gene KLF9, compared to DMSO) was 1.348, the “Fold Change, KLF13” value ([1]; gene KLF13, compared to DMSO) was 1 358 and the “Fold Change, LOX” value ([1]; gene LOX, compared to DMSO) was 0.683. The “Fold Change, MT2A” value ([1]; gene MT2A, compared to DMSO) was 0.929, the “Fold Change, NFKBIA” value ([1]; gene NFKBIA, compared to DMSO) was 0.563 and the “Fold Change, NR3C1” value ([1]; gene NR3C1, compared to DMSO) was 0.892. For the same molecule, the “Fold Change, PDCD7” value ([1]; gene PDCD7, compared to DMSO) was 1.000, the “Fold Change, PDP1” value ([1]; gene PDP1, compared to DMSO) was 1.078 and the “Fold Change, PER1” value ([1]; gene PER1, compared to DMSO) was 0.880. For the same molecule, the “Fold Change, PER2” value ([1]; gene PER2, compared to DMSO) was 0.951, the “Fold Change, PIK3R1” value ([1]; gene PIK3R1, compared to DMSO) was 1.000 and the “Fold Change, PLEKHF1” value ([1]; gene PLEKHF1, compared to DMSO) was 0.948. For the same molecule, the “Fold Change, POU2F1” value ([1]; gene POU2F1, compared to DMSO) was 0.738, the “Fold Change, POU2F2” value ([1]; gene POU2F2, compared to DMSO) was 1.192 and the “Fold Change, RASA3” value ([1]; gene RASA3, compared to DMSO) was 1.143. The “Fold Change, RGS2” value ([1]; gene RGS2, compared to DMSO) was 0.388, the “Fold Change, RHO8” value ([1]; gene RHO8, compared to DMSO) was 1.533 and the “Fold Change, SESN1” value ([1]; gene SESN1, compared to DMSO) was 5.537. The “Fold Change, SGK1” value ([1]; gene SGK1, compared to DMSO) was 0.244, the “Fold Change, SLC10A6” value ([1]; gene SLC10A6, compared to DMSO) was 0.540 and the “Fold Change, SLC19A2” value ([1]; gene SLC19A2, compared to DMSO) was 1.362. The “Fold Change, SLC22A5” value ([1]; gene SLC22A5, compared to DMSO) was 6.562, the “Fold Change, SNTA1” value ([1]; gene SNTA1, compared to DMSO) was 0.873 and the “Fold Change, SPHK1” value ([1]; gene SPHK1, compared to DMSO) was 0.724. The “Fold Change, SPSB1” value ([1]; gene SPSB1, compared to DMSO) was 0.635, the “Fold Change, STAT5A” value ([1]; gene STAT5A, compared to DMSO) was 0.739 and the “Fold Change, STAT5B” value ([1]; gene STAT5B, compared to DMSO) was 0.894. The “Fold Change, TBL1XR1” value ([1]; gene TBL1XR1, compared to DMSO) was 0.881, the “Fold Change, TNF” value ([1]; gene TNF, compared to DMSO) was 0.590 and the “Fold Change, TNFAIP3” value ([1]; gene TNFAIP3, compared to DMSO) was 0.235. For the same molecule, the “Fold Change, TSC22D3” value ([1]; gene TSC22D3, compared to DMSO) was 6.625, the “Fold Change, USP2” value ([1]; gene USP2, compared to DMSO) was 2.745 and the “Fold Change, USPS4” value ([1]; gene USPS4, compared to DMSO) was 0.865. For the same molecule, the “Fold Change, VDR” value ([1]; gene VDR, compared to DMSO) was 1.479, the “Fold Change, VLDLR” value ([1]; gene VLDLR, compared to DMSO) was 0.159 and the “Fold Change, ZFP36” value ([1]; gene ZFP36, compared to DMSO) was 0.465. For the same molecule, the “Fold Change, ZHX3” value ([1]; gene ZHX3, compared to DMSO) was 0.932, the “Fold Change, ZNF281” value ([1]; gene ZNF281, compared to DMSO) was 1.067 and the “ADARB1 Fold Change” value [2] was 0.274. For the same molecule, the “AFF1 Fold Change” value [2] was 1.481, the “AK2 Fold Change” value [2] was 0.964 and the “AMPD3 Fold Change” value [2] was 0.418. The “ANGPTL4 Fold Change” value [2] was 0.693, the “ANXA4 Fold Change” value [2] was 0.809 and the “ARID68 Fold Change” value [2] was 0.914. The “ASPH Fold Change” value [2] was 0.695, the “ATF4 Fold Change” value [2] was 0.822 and the “BCL6 Fold Change” value [2] was 0.759. For the same molecule, the “BMPER Fold Change” value [2] was 0.362, the “CEBPA Fold Change” value [2] was 5.067 and the “CEBPB Fold Change” value [2] was 0.692. For the same molecule, the “COL4A2 Fold Change” value [2] was 0.009, the “CREB1 Fold Change” value [2] was 0.943 and the “CREB3 Fold Change” value [2] was 0.959. For the same molecule, the “CREB3L4 Fold Change” value [2] was 0.792, the “CTGF Fold Change” value [2] was 0.906 and the “CYB561 Fold Change” value [2] was 0.265. For the same molecule, the “DDIT4 Fold Change” value [2] was 0.815, the “DUSP1 Fold Change” value [2] was 0.765 and the “EDN1 Fold Change” value [2] was 0.449. The “EHD3 Fold Change” value [2] was 2.132, the “ERRFI1 Fold Change” value [2] was 0.850 and the “FK8PS Fold Change” value [2] was 1.929. The “FOSL2 Fold Change” value [2] was 1.071, the “GDPD1 Fold Change” value [2] was 0.718 and the “GHRHR Fold Change” value [2] was 2.759. The “GLUL Fold Change” value [2] was 2.702, the “GOT1 Fold Change” value [2] was 0.853 and the “H6PD Fold Change” value [2] was 0.770. For the same molecule, the “HNRPLL Fold Change” value [2] was 0.118, the “KLF9 Fold Change” value [2] was 1.013 and the “KLF13 Fold Change” value [2] was 1.214. The “LOX Fold Change” value [2] was 0.607, the “MERTK Fold Change” value [2] was 0.986 and the “NFKBIA Fold Change” value [2] was 0.957. For the same molecule, the “NR3C1 Fold Change” value [2] was 0.803, the “PDCD7 Fold Change” value [2] was 0.986 and the “PDP1 Fold Change” value [2] was 1.040. The “PER1 Fold Change” value [2] was 0.799, the “PER2 Fold Change” value [2] was 1.282 and the “PIK3R1 Fold Change” value [2] was 1.150. For the same molecule, the “PLD1 Fold Change” value [2] was 0.866, the “PLEKHF1 Fold Change” value [2] was 1.272 and the “POU2F1 Fold Change” value [2] was 0.760. For the same molecule, the “POU2F2 Fold Change” value [2] was 0.904, the “RASA3 Fold Change” value [2] was 0.584 and the “RGS2 Fold Change” value [2] was 0.555. For the same molecule, the “RHOB Fold Change” value [2] was 0.648, the “SESN1 Fold Change” value [2] was 2.398 and the “SGK1 Fold Change” value [2] was 0.230. The “SLC10A6 Fold Change” value [2] was 0.284, the “SLC19A2 Fold Change” value [2] was 1.014 and the “SLC22A5 Fold Change” value [2] was 0.638. The “SNTA1 Fold Change” value [2] was 0.631, the “SPHK1 Fold Change” value [2] was 1.496 and the “SPSB1 Fold Change” value [2] was 1.053. For the same molecule, the “STAT5A Fold Change” value [2] was 2.270, the “STAT5B Fold Change” value [2] was 0.839 and the “TBL1XR1 Fold Change” value [2] was 0.978. For the same molecule, the “TNF Fold Change” value [2] was 0.593, the “TSC22D3 Fold Change” value [2] was 3.343 and the “USP2 Fold Change” value [2] was 1.393. For the same molecule, the “USPS4 Fold Change” value [2] was 0.865, the “VDR Fold Change” value [2] was 1.351 and the “VLDLR Fold Change” value [2] was 0.343. The “ZFP36 Fold Change” value [2] was 0.856, the “ZHX3 Fold Change” value [2] was 1.577 and the “ZNF281 Fold Change” value [2] was 1.081.
